Reference: patent US9090628B2, “Benzoxazepin compounds selective for PI3K P110 delta and methods of use” (GENENTECH, INC., priority 2011, dated 2015)

Protein sequences, listed by entry. Tags and fused reporters are not part of them. Lines headed by an entry give the natural chain unless they say otherwise; changes in a name come on top.
UniProt O00329: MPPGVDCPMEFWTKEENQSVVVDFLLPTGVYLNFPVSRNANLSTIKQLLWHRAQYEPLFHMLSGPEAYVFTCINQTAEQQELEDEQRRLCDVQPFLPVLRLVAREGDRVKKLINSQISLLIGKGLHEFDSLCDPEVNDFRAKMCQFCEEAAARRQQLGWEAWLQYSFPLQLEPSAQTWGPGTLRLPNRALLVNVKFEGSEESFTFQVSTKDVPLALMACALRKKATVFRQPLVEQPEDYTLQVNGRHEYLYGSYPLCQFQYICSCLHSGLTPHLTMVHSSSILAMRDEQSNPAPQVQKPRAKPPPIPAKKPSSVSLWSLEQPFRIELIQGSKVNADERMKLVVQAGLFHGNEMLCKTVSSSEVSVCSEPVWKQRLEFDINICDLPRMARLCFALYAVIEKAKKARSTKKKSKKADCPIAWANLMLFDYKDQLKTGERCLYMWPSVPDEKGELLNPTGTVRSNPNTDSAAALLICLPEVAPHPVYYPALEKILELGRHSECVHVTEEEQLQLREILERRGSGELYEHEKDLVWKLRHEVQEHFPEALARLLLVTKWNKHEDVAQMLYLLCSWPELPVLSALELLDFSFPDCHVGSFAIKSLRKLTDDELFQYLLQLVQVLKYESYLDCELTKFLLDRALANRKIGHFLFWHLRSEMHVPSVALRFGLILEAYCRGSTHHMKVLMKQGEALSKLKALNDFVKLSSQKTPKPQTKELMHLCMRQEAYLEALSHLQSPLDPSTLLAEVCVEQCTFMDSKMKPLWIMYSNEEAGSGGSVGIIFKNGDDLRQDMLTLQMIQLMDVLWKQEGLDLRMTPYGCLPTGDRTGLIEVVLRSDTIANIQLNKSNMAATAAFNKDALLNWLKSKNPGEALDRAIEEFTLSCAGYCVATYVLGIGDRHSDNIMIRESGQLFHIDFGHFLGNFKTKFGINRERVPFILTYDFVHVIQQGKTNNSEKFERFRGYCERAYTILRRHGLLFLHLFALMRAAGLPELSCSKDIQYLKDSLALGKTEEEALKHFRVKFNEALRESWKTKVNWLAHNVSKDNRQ
UniProt P42336, whole entry: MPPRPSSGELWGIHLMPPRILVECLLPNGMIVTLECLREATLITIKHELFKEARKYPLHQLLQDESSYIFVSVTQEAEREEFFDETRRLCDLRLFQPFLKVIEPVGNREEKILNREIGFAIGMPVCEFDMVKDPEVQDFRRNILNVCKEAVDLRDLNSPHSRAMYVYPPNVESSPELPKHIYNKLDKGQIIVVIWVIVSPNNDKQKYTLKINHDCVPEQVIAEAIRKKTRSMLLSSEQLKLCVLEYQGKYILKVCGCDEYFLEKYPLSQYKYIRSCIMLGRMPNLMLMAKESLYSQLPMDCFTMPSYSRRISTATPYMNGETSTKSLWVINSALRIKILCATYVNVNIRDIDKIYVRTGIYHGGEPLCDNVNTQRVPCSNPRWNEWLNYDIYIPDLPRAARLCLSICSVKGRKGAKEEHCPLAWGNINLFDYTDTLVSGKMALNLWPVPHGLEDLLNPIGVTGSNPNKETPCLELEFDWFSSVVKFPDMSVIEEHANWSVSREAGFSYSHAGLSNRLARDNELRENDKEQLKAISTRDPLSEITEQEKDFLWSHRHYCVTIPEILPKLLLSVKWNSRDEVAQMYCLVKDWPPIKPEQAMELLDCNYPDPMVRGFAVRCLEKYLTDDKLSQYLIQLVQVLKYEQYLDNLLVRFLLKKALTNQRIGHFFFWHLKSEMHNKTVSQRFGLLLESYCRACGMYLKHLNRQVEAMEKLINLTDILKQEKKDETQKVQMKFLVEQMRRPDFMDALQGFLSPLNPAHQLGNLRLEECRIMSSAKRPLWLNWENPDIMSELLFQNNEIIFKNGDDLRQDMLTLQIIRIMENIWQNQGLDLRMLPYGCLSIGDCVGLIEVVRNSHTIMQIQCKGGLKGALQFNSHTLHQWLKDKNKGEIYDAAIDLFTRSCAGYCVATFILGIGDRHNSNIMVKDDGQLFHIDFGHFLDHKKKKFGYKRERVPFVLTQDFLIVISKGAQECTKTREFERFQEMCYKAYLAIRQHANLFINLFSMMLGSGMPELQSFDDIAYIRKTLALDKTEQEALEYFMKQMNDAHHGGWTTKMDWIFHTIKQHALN

molecular target: p110 delta (Homo sapiens (Human), UniProt O00329); experiment: PI3K isoform inhibition assay, p110 delta (fluorescence polarization displacement); format: biochemical; conditions: not given
Method: (§1) PI3K enzymatic activity was assayed by measuring the amount of product phosphatidylinositol 3,4,5-phosphate (PIP3) formed from substrate 4,5 phosphatidylinositol 4,5-phosphate (PIP2) using a fluorescence polarization displacement assay. The decrease in fluorescence polarization of a fluorescent PIP3 probe is measured as it is displaced from a PIP3-binding protein GRP-1 detector by PI3K-catalyzed product. […] The kinase reactions were initiated by the addition of 40 ng/mL p110α/p85α, 300 ng/mL p110β/p85α, 40 ng/mL p110γ, or 40 ng/mL p110δ/p85α (Upstate Group, Millipore; Dundee, UK), and 10 μM PIP2 (Echelon Biosciences) to the wells. […] After 60 minutes of incubation at room temperature to allow equilibration of labeled and unlabeled PIP3 binding, the parallel and perpendicular components of the fluorescence emissions from each sample were measured at an excitation wavelength of 530 nm and an emission wavelength of 590 nm using an Envision fluorescent plate reader with a rhodamine filter (PerkinElmer Life and Analytical Sciences; Wellesley, Mass.). The assay is capable of detecting 0.1-2.0 μM PIP3 product. The IC50 values were obtained by fitting the dose-dependent inhibition data to a 4-parameter equation using Assay Explorer software (MDL, San Ramon, Calif.).
The Formula I compound was serially diluted in 100% DMSO. The kinase reaction was incubated for 1 h at room temperature, and the reaction was terminated by the addition of PBS. IC50 values were subsequently determined using sigmoidal dose-response curve fit (variable slope).
(§2) The four Class I PI 3-kinases are cloned into baculovirus vectors as follows: […]

| SMILES | IC50 [nM] |
| --- | --- |
| Cc1nc(-c2cn3c(n2)-c2cnc(N4CCCC4C4CCCCN4C)cc2OCC3)n(CC(F)(F)F)n1 (centres unmarked) [Example 101, 2-(3-methyl-1-(2,2,2-trifluoroethyl)-1H-1,2,4-triazol-5-yl)-9-(2-(1-methylpiperidin-2-yl)pyrrolidin-1-yl)-5,6-dihydroimidazo[1,2-d]pyrido[3,4-f][1,4]oxazepine] | 0.102 |
| Cc1nc(-c2cn3c(n2)-c2ccc(-c4cnn(C)c4[C@@H]4CCCN(C(C)C)C4)cc2OCC3)n(C(C)C)n1 [Example 291, (R)-2-(1-isopropyl-3-methyl-1H-1,2,4-triazol-5-yl)-9-(5-(1-isopropylpiperidin-3-yl)-1-methyl-1H-pyrazol-4-yl)-5,6-dihydrobenzo[f]imidazo[1,2-d][1,4]oxazepine] | 0.494 |
| Cc1nc(-c2cn3c(n2)-c2cnc(N4CCCC4C4CCCCN4C)cc2OCC3)n(CC(F)(F)F)n1 (stereo not drawn) [Example 103, (cis)-2-(3-methyl-1-(2,2,2-trifluoroethyl)-1H-1,2,4-triazol-5-yl)-9-(2-(1-methylpiperidin-2-yl)pyrrolidin-1-yl)-5,6-dihydroimidazo[1,2-d]pyrido[3,4-f][1,4]oxazepine] | 0.106 |
| Cc1nc(-c2cn3c(n2)-c2ccc(-c4cnn(C)c4C4CC(N(C)C)CCO4)cc2OCC3)n(C(C)C)n1 (centres unmarked) [Example 302, 2-[4-[2-(2-isopropyl-5-methyl-1,2,4-triazol-3-yl)-5,6-dihydroimidazo[1,2-d][1,4]benzoxazepin-9-yl]-2-methyl-pyrazol-3-yl]-N,N-dimethyl-tetrahydropyran-4-amine] | 1.65 |
| Cc1nc(-c2cn3c(n2)-c2cnc(N4CCCC4C4CCCCN4C)cc2OCC3)n(CC(F)(F)F)n1 (centres unmarked) [Example 102, 2-(3-methyl-1-(2,2,2-trifluoroethyl)-1H-1,2,4-triazol-5-yl)-9-(2-(1-methylpiperidin-2-yl)pyrrolidin-1-yl)-5,6-dihydroimidazo[1,2-d]pyrido[3,4-f][1,4]oxazepine] | 0.107 |
| Cc1nc(-c2cn3c(n2)-c2ccc(-c4cnn(C)c4C4CC(N(C)C)CCO4)cc2OCC3)n(C(C)C)n1 (centres unmarked) [Example 295, 2-[4-[2-(2-isopropyl-5-methyl-1,2,4-triazol-3-yl)-5,6-dihydroimidazo[1,2-d][1,4]benzoxazepin-9-yl]-2-methyl-pyrazol-3-yl]-N,N-dimethyl-tetrahydropyran-4-amine] | 0.721 |
| Cc1nc(-c2cn3c(n2)-c2ccc(-c4cnn(C)c4C4CCCN(C(C)C)C4)cc2OCC3)n(C(C)C)n1 (centres unmarked) [Example 279, 2-(2-isopropyl-5-methyl-1,2,4-triazol-3-yl)-9-[5-(1-isopropyl-3-piperidyl)-1-methyl-pyrazol-4-yl]-5,6-dihydroimidazo[1,2-d][1,4]benzoxazepine] | 0.324 |
| Cc1nc(-c2cn3c(n2)-c2cc([C@@H](C)N4CCN(C(C)(C)C)CC4)c(C)cc2OCC3)n(C(C)C)n1 [Example 299, (R)-10-(1-(4-tert-butylpiperazin-1-yl)ethyl)-2-(1-isopropyl-3-methyl-1H-1,2,4-triazol-5-yl)-9-methyl-5,6-dihydrobenzo[f]imidazo[1,2-d][1,4]oxazepine] | 0.479 |

Continued, values first:

| IC50 [nM] | SMILES |
| --- | --- |
| 0.864 | Cc1nc(-c2cn3c(n2)-c2ccc(-c4cnn(C)c4C4CC(N(C)C)CCO4)cc2OCC3)n(C(C)C)n1 (centres unmarked) [Example 329, 2-[4-[2-(2-isopropyl-5-methyl-1,2,4-triazol-3-yl)-5,6-dihydroimidazo[1,2-d][1,4]benzoxazepin-9-yl]-2-methyl-pyrazol-3-yl]-N,N-dimethyl-tetrahydropyran-4-amine] |
| 0.708 | Cc1nc(-c2cn3c(n2)-c2ccc(N4CCC4C4CCN(C)CC4)cc2OCC3)n(C(C)C)n1 (centres unmarked) [Example 307, 2-(2-isopropyl-5-methyl-1,2,4-triazol-3-yl)-9-[2-(1-methyl-4-piperidyl)azetidin-1-yl]-5,6-dihydroimidazo[1,2-d][1,4]benzoxazepine] |
| 0.419 | Cc1nc(-c2cn3c(n2)-c2ccc(N4CCC4C4CCN(C)CC4)cc2OCC3)n(C(C)C)n1 (centres unmarked) [Example 308, 2-(2-isopropyl-5-methyl-1,2,4-triazol-3-yl)-9-[2-(1-methyl-4-piperidyl)azetidin-1-yl]-5,6-dihydroimidazo[1,2-d][1,4]benzoxazepine] |
| 0.63 | Cc1nc(-c2cn3c(n2)-c2ccc(-c4cnn(C)c4C4CC(N(C)C)CCO4)cc2OCC3)n(C(C)C)n1 (centres unmarked) [Example 330, 2-[4-[2-(2-isopropyl-5-methyl-1,2,4-triazol-3-yl)-5,6-dihydroimidazo[1,2-d][1,4]benzoxazepin-9-yl]-2-methyl-pyrazol-3-yl]-N,N-dimethyl-tetrahydropyran-4-amine] |
| 1.2 | Cc1nc(-c2cn3c(n2)-c2ccc(-c4cnn(C)c4C4CC(N(C)C)CCO4)cc2OCC3)n(C(C)C)n1 (centres unmarked) [Example 363, 2-[4-[2-(2-isopropyl-5-methyl-1,2,4-triazol-3-yl)-5,6-dihydroimidazo[1,2-d][1,4]benzoxazepin-9-yl]-2-methyl-pyrazol-3-yl]-N,N-dimethyl-tetrahydropyran-4-amine] |
| 0.262 | Cc1nc(-c2cn3c(n2)-c2ccc(-c4cnn(C)c4C4CCCN(C(C)(C)CO)C4)cc2OCC3)n(C(C)C)n1 (centres unmarked) [Example 310, 2-[3-[4-[2-(2-isopropyl-5-methyl-1,2,4-triazol-3-yl)-5,6-dihydroimidazo[1,2-d][1,4]benzoxazepin-9-yl]-2-methyl-pyrazol-3-yl]-1-piperidyl]-2-methyl-propan-1-ol] |
| 0.735 | Cc1nc(-c2cn3c(n2)-c2ccc(-c4cnn(C)c4C4CC(N(C)C)CCO4)cc2OCC3)n(C(C)C)n1 (centres unmarked) [Example 312, 2-[4-[2-(2-isopropyl-5-methyl-1,2,4-triazol-3-yl)-5,6-dihydroimidazo[1,2-d][1,4]benzoxazepin-9-yl]-2-methyl-pyrazol-3-yl]-N,N-dimethyl-tetrahydropyran-4-amine] |

molecular target: p110 alpha (Homo sapiens (Human), UniProt P42336); experiment: PI3K isoform inhibition assay, p110 alpha (for alpha/delta selectivity); conditions: ratio of biochemical IC50 values
Method: as §1
The same protocol may be used to establish IC50 values for p110α (alpha) PI3K binding.
as §2

| SMILES | IC50 p110 alpha/IC50 p110 delta |
| --- | --- |
| Cc1nc(-c2cn3c(n2)-c2cnc(N4CCCC4C4CCCCN4C)cc2OCC3)n(CC(F)(F)F)n1 (centres unmarked) [Example 101, 2-(3-methyl-1-(2,2,2-trifluoroethyl)-1H-1,2,4-triazol-5-yl)-9-(2-(1-methylpiperidin-2-yl)pyrrolidin-1-yl)-5,6-dihydroimidazo[1,2-d]pyrido[3,4-f][1,4]oxazepine] | 18.6 |
| Cc1nc(-c2cn3c(n2)-c2cnc(N4CCCC4C4CCCCN4C)cc2OCC3)n(CC(F)(F)F)n1 (stereo not drawn) [Example 103, (cis)-2-(3-methyl-1-(2,2,2-trifluoroethyl)-1H-1,2,4-triazol-5-yl)-9-(2-(1-methylpiperidin-2-yl)pyrrolidin-1-yl)-5,6-dihydroimidazo[1,2-d]pyrido[3,4-f][1,4]oxazepine] | 34.2 |
| Cc1nc(-c2cn3c(n2)-c2cnc(N4CCCC4C4CCCCN4C)cc2OCC3)n(CC(F)(F)F)n1 (centres unmarked) [Example 102, 2-(3-methyl-1-(2,2,2-trifluoroethyl)-1H-1,2,4-triazol-5-yl)-9-(2-(1-methylpiperidin-2-yl)pyrrolidin-1-yl)-5,6-dihydroimidazo[1,2-d]pyrido[3,4-f][1,4]oxazepine] | 17.3 |
| Cc1nc(-c2cn3c(n2)-c2cnc(N4CCCC4C4CCCCN4C)cc2OCC3)n(CC(F)(F)F)n1 (stereo not drawn) [Example 104, (trans)-2-(3-methyl-1-(2,2,2-trifluoroethyl)-1H-1,2,4-triazol-5-yl)-9-(2-(1-methylpiperidin-2-yl)pyrrolidin-1-yl)-5,6-dihydroimidazo[1,2-d]pyrido[3,4-f][1,4]oxazepine] | 12.4 |
| Cc1nc(-c2cn3c(n2)-c2ccc(N4CCC[C@@H]4C4CCN(C(C)C)CC4)cc2OCC3)n(C(C)C)n1 [Example 263, (R)-2-(1-isopropyl-3-methyl-1H-1,2,4-triazol-5-yl)-9-(2-(1-isopropylpiperidin-4-yl)pyrrolidin-1-yl)-5,6-dihydrobenzo[f]imidazo[1,2-d][1,4]oxazepine] | 37.5 |
